Drawing on BindingDB's records for doi:10.1038/sj.mp.4000336 (University of Toronto, 1998), this text covers Ki for 2 compounds.

Protein sequences, listed by entry. Tags and fused reporters are not part of them. Chains listed by the source or under a name are the forms on record and can include a tag or linker.
UniProt P14842, whole entry: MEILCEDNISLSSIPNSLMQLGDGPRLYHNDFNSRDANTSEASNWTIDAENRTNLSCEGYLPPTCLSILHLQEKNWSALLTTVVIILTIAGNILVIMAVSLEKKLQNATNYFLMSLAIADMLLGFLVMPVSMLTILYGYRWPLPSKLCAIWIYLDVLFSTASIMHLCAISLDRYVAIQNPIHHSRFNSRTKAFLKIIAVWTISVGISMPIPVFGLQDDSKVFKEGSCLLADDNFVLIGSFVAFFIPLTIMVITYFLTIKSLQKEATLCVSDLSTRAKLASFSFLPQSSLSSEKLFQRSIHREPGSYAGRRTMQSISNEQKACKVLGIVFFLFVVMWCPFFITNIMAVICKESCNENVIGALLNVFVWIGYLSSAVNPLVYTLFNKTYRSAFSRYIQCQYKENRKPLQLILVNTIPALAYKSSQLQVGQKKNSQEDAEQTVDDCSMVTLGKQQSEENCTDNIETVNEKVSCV
UniProt P35462, as listed by the source: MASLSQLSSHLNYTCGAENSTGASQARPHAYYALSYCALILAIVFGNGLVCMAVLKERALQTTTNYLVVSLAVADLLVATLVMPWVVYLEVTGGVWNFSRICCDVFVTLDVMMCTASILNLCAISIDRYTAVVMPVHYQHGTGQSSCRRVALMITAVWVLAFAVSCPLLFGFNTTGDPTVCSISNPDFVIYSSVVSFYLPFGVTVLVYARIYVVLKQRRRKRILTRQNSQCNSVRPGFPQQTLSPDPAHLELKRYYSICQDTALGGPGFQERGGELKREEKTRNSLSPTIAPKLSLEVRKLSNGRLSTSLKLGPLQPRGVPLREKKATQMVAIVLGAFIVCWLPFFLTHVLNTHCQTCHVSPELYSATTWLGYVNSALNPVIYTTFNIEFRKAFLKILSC

The structures appear in SMILES notation.

Test [1] has as its target 5-hydroxytryptamine receptor 2A (Rattus norvegicus, UniProt P14842).
A further test addresses D(3) dopamine receptor (Homo sapiens, UniProt P35462).

One may read the Ki as a measure of affinity in units of concentration, obtained from inhibition or displacement. Read a high Ki as weaker binding. `O=C1NCCN1CCN1CCC(c2cn(-c3ccc(F)cc3)c3ccc(Cl)cc23)CC1` [1-[2-[4-[5-chloro-1-(4-fluorophenyl)-indol-3-yl]-1-piperidyl]ethyl]imidazolidin-2-one] yielded an inhibition constant (Ki) in test [1] of 0.3 nM. Compound `CCN1CCC[C@H]1CNC(=O)c1cc(S(N)(=O)=O)ccc1OC` [Sulpiride-S] yielded a Ki at D(3) dopamine receptor of 6.4 nM.
